Results reported in US20060094763A1, “Polymorphic forms of 6-[2-(methylcarbomoyl) phenyl sulfanyl]-3-E-[2-(pyridin-2-yl)ethenyl]indazole” (Agouron Pharmaceuticals, Inc., priority 2004, published 2006).

Assay: Salt screening: solubility of in situ acid salts of Compound 1 in 100 mM acid solutions (HPLC)
Conditions: 100 mM acid solution, excess solid
Experimental: To ensure that the maximum solubility level was reached, the samples were checked periodically to ensure that excess solid was present. After 8 days 400 μL of the mixture was removed and centrifuged at 14,000 rpm for 5 minutes. 100 μL of the supernatant was then removed, diluted with 900 μL of a 1:1 mixture of acetonitrile/methanol, and then analyzed by HPLC.

Maleic acid
Solubility 8 days (stirred 8 days in the dark): 69 µg/mL | Solubility 14 days (stirred 14 days in the dark): 68 µg/mL
